The values below come from patent publication US20230027592A1.

The test has as its target Bovine serum albumin (bovine) (UniProt P02769).

Consider “Chymotrypsin protease (Sequencing Grade, Promega V106A) (from UniProt P00766) (enzyme)”, for which the BSA sequence coverage after digestion (nLC-MS/MS) (% BSA sequence coverage) was found to be 90.2.
